The target in this assay is human 5HT1A receptor (Homo sapiens, UniProt P08908). The assay can be described thus: Binding to human 5HT1A receptor (HeLa HA7 cell line). Here is the method:
The HeLa HA7 cell line expressing the 5HT1A human receptor was obtained from Tulco (Duke Univ., Durham, N.C., USA) and cultured according to the method of Fargin et al., J. Biol. Chem., 264, 14848 (1989).
The binding of the derivatives of the present invention with human 5HT1Da, 5HT1Db and 5HT1A receptors was studied according to the method described by P. Pauwels and C. Palmier (Neuropharmacology, 33, 67, 1994).
The incubation media for these binding measurements comprise 0.4 ml of cell membrane preparation, 0.05 ml of a tritiated ligand [[3H]-SCT (final concentration: 2 nM) for the 5HT1Da and 5HT1Db receptors and [3H]-80H-DPAT (final concentration: 1 nM) for the 5HT1A receptor] and 0.05 ml of the molecule to be tested (final concentrations from 0.1 nM to 1000 nM) or 10 μM (final concentration) of serotonin (5HT1Da and 5HT1Db) or 1 μM (final concentration) of spiroxatrin (5HT1A ).

Sequences of proteins named here, by UniProt entry; tags and fusion partners are left off.
UniProt P08908, whole entry: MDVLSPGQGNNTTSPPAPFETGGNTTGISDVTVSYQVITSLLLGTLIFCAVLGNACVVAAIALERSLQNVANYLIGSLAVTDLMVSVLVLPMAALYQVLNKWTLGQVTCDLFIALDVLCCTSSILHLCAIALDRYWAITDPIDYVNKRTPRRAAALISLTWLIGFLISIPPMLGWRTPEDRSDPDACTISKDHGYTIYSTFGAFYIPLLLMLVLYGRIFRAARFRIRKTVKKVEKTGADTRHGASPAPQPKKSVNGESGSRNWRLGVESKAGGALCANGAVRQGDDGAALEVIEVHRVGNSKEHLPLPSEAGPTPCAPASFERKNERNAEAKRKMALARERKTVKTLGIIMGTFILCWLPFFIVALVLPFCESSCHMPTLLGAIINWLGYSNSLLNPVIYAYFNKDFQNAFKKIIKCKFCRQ

[1] abbreviates: HeLa HA7 cells, [3H]-DPAT ligand 1 nM.

Molecules are shown by their SMILES. Structures can show the parent of a compound that is named as a salt. Where two headings read alike, the source gives them in different places.

On to `NCCc1c[nH]c2ccc(OCC(=O)N3CCN(c4ccc([N+](=O)[O-])cc4)CC3)cc12` [Example 1, 2-[3-(2-Aminoethyl)-1H-indol-5-yloxy]-1-[4-(4-nitrophenyl)piperazin-1-yl]ethanone hydrochloride], for which the Ki (commonly the dissociation constant of the complex between target and ligand, obtained from inhibition or displacement) under setting [1] amounted to 25 nM.
For the compound `CC(=O)Nc1ccc(N2CCN(C(=O)COc3ccc4[nH]cc(CCN)c4c3)CC2)cc1` [Example 3, N-[4-(4-{2-[3-(2-Aminoethyl)-1H-indol-5-yloxy]acetyl}piperazin-1-yl)phenyl]acetamide hydrochloride], the Ki is 78.6 nM.
`CS(=O)(=O)Nc1ccc(N2CCN(C(=O)COc3ccc4[nH]cc(CCN)c4c3)CC2)cc1` [Example 5, N-[4-(4-{2-[3-(2-Aminoethyl)-1H-indol-5-yloxy]acetyl}piperazin-1-yl)phenyl]methanesulfonamide hydrochloride]: under setting [1], the inhibition constant Ki was 73 nM.
`CS(=O)(=O)Nc1ccc(N2CCN(C(=O)CCCCCOc3ccc4[nH]cc(CCN)c4c3)CC2)cc1` [Example 59, N-[4-(4-{6-[3-(2-Aminoethyl)-1H-indol-5-yloxy]hexanoyl}piperazin-1-yl)phenyl]methane sulfonamide hydrochloride]: under setting [1], the Ki came to 9.3 nM.

Source of the values: patent publication US5726177A, “Indole-derived arylpiperazines as ligands for 5HT1 -like, 5HT1B and 5HT1D receptors” (Pierre Fabre Medicament, priority 1993, dated 1998).
